## Antibody variant affinities, Ab-14 light chain, assay B

Binding partner: SARS-CoV-2 spike HR2 peptide, sequence PDVDLGDISGINAS.

Parent scFv Ab-14: VH joined to VL by three GGGGS repeats. Changes lie in the light chain CDRs alone.
VH: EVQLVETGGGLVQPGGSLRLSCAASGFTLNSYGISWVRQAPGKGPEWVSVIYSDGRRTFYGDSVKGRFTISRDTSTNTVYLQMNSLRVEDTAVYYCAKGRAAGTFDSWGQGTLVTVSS
VL: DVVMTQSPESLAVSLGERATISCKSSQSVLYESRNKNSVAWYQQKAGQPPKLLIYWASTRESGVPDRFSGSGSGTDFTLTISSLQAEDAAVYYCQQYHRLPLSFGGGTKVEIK

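Phage display of a naive human antibody library on the peptide gave the parent. Designed CDR sequences, proposed from the first random library and measured here. Group labels follow the data file (Ctrl: baseline library sampled from a position-specific scoring matrix, with some repeated check sequences; Rand: our label for a block that the file lists under HC and that is probably the random mutants of the ten best first-round binders; En: ensemble of fine-tuned language models; GP: Gaussian process model; HC: hill climbing; Gen: genetic algorithm; Gibbs: Gibbs sampling; a sequence that several methods proposed may carry one label only). AlphaSeq pools MATa yeast showing the antibodies with MATalpha yeast showing the peptide. Pairs that bind mate more often; barcode pairs of the diploids are counted by sequencing. The ratio of observed to expected reads was calibrated, replicate by replicate, on BCL2-family standards whose Kd was known from biolayer interferometry. The assay was run in six technical replicates.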

The parent's light chain CDRs are KSSQSVLYESRNKNSVA, WASTRES, QQYHRLPLS; each variant's own CDRs replace them letter for letter.
Values are log10 of the apparent Kd in nM; lower means stronger binding.
Where no diploid with the target was found in that replicate, the entry reads "ND": below detection, most likely a poor binder, though not proof of it.
The parent sequence was in this pool as ten entries: three were never detected, three once, and four in most replicates, with averages from 0.34 to 2.37.
The range of this assay differs from that of the first round, and the authors advise against merging the two.
The authors' rule: three or more of the six replicates give a measured affinity, fewer mean a poor binder.
Three control strains display no target. For all light chain designs, 4% of the pairings with them gave a signal, with a median of 2.64 and one signal in twenty below 1.59, so weak values seen in few replicates may be background.

| CDR-L1 | CDR-L2 | CDR-L3 | group | log10 Kd (nM) by replicate |
|---|---|---|---|---|
| KSSQSVLYESRNKNSVA | WASTRES | QQYHWLPLS | Ctrl | 2.60 / ND / 3.25 / ND / 3.25 / 4.52 |
| KMSQPVLYESKHKNSVA | RASTRES | FQYQRLPLS | Ctrl | ND / ND / ND / ND / ND / ND |
| KISGLYNFAQTNKNSIA | EMTTRED | QHYHRLPLS | En_HC | 1.11 / 0.73 / 1.08 / 0.91 / 0.78 / 0.80 |
| SIDPYEAMAGKNKESIA | EAAVTLT | QQYARLPLS | En_Gibbs | 0.55 / 0.55 / 0.69 / 0.56 / 0.59 / 0.51 |
| KQSQSVLQESRNKNSVA | DASTRES | QQYHRLPLS | GP_HC | -0.16 / -0.16 / -0.33 / -0.24 / -0.37 / 0.00 |
| KWSMSVMGESRNKNSVA | NASTRES | QQYHRLPLS | GP_Gibbs | 0.34 / -0.01 / -0.04 / 0.15 / 0.06 / 0.27 |
| KSSQSVLYEDRNKNSVA | HASTRER | QQYARLPLS | Ctrl | 0.88 / 1.02 / 0.86 / 0.96 / 1.46 / 1.15 |
| KVSQSVMYESRNKNSVA | DASTRES | QQYHRLPLS | GP_Gen | -0.30 / -0.25 / -0.60 / -0.48 / -0.41 / -0.59 |
| KISQEDPMENRNKNSVA | HASLRES | QQYHRLPLS | GP_Gibbs | 0.13 / -0.01 / -0.22 / -0.54 / -0.16 / -0.02 |
| KVSQSFLYESRNKNSVA | DASTRES | QQYHRLPLS | GP_Gen | -0.21 / -0.65 / -0.42 / -0.72 / -0.41 / -0.06 |
| MVVGPDEGEEHNWQSVA | SAELRAM | QQYFRLPLM | En_Gibbs | 1.30 / 1.68 / 1.22 / 1.07 / 1.31 / 1.10 |
| KLSQSVLYESRNKNSVA | GASTRES | QQYHRLPLM | GP_Gen | 0.16 / 0.12 / 0.20 / 0.20 / 0.37 / 0.15 |
| MISQVMNTLTRNGNNVA | DLQNREK | QQYFRLPLS | En_Gen | 0.80 / 1.16 / 0.74 / 1.20 / 0.66 / 1.85 |
| TISGVMTQMSHSKNNVA | EVSTRLD | QQYFRLPLE | En_Gen | 0.33 / 0.14 / 0.40 / -0.06 / 0.04 / 0.02 |
| TIGQTLMYGMRNRSNVA | EVSERLN | QQYDRLPLF | En_Gen | 1.56 / ND / 1.88 / 1.54 / 2.37 / 2.19 |
| KLSGSVLMESRNKNSVA | SATTRLS | QQYHRLPLS | GP_Gibbs | -0.11 / -0.05 / -0.28 / -0.23 / -0.16 / 0.06 |
| SLGLATMLEEYVRNSVA | NNSTREE | QQYDRLPLS | En_Gen | ND / ND / ND / ND / ND / 2.70 |
| KSSQMDLYESRNGNSVA | DASTRMD | QQYHRLPLS | GP_Gibbs | 0.02 / -0.11 / -0.30 / -0.27 / -0.14 / 0.20 |
| KSSQSVLYESRNKNIVA | SASTRES | QQYHRLPLS | Ctrl | ND / ND / 1.46 / ND / ND / ND |
| KSSTSTLYESRNCNSVA | GASTRES | QSYHRLPLS | Ctrl | 1.22 / 0.75 / 0.63 / 0.65 / 0.58 / 1.07 |
| KQSQSVLYESRNQNSVA | WASTRES | QQYHRLPLS | Ctrl | 1.48 / 1.90 / 1.73 / 1.33 / 1.74 / 1.75 |
| KLSQSMLYESRNVNSVA | QASTRES | QQYHRLPLM | GP_Gibbs | -0.14 / -0.27 / -0.47 / -0.31 / -0.38 / -0.09 |

Further variants, results first:

| log10 Kd (nM) by replicate | CDR-L1 | CDR-L2 | CDR-L3 | group |
|---|---|---|---|---|
| ND / ND / ND / ND / ND / ND | NISQMIFMETKHVNNVA | QTSTREE | QDYHRLPLS | En_HC |
| 1.17 / 0.96 / 0.76 / 1.20 / 1.23 / 1.41 | KVDQSVLYESRNKNSVA | QGSTRES | QQYHRLPLH | GP_Gibbs |
| ND / 2.15 / 2.45 / 1.45 / 1.28 / ND | TLMMDPTEQRDNKHAVA | DNNQRDR | QQYHRLPLS | En_Gibbs |
| -0.02 / -0.16 / -0.14 / -0.29 / -0.17 / 0.09 | KVSQSVLYESRNKQSVA | DASTRES | QQYHRLPLS | GP_Gen |
| 0.47 / -0.25 / -0.07 / -0.13 / 0.04 / 0.09 | KYSQSVLYESRNKNAVA | DASTRES | QQYHRLPLS | GP_HC |
| ND / ND / ND / ND / ND / ND | KSSGSVLYESRNKNSVA | WASTRSS | QTYHRLPLS | Ctrl |
| -0.22 / -0.46 / -0.46 / -0.62 / -0.47 / -0.31 | KLSQSVLYESRNKNSVA | NAQTRES | QQYHRLPLS | GP_Gen |
| 4.06 / 2.84 / 1.82 / 2.48 / 1.13 / 3.28 | KVSQSVLYESRTKNSVA | NASTRES | QQEHRLPLS | GP_HC |
| -0.05 / -0.12 / -0.27 / -0.14 / -0.26 / -0.14 | KMSQSVPYESRNLNNVA | DGSTRES | QQYHRLPLS | GP_Gibbs |
| 2.64 / 1.95 / ND / 1.63 / 3.19 / 2.19 | KSSQSVLYESRNKNAVA | WASTRES | QQYHRLPLS | Ctrl |
| 1.64 / 0.91 / 1.19 / 0.90 / 1.02 / 1.17 | HWSQSVPMGERNKNSVA | MASYRES | QQYHRLPLS | GP_Gibbs |
| 0.32 / 0.41 / -0.10 / 0.46 / -0.15 / 0.35 | KLSQSVLYESRCKNSVA | NASTRMS | QQYHRLPLS | GP_Gen |
| 1.99 / 2.28 / 1.97 / 2.30 / 2.87 / 1.49 | IVSQLMLWGYHAKNSIA | EAQTRVN | QQYDRLPLF | En_Gen |
| 0.21 / 0.03 / -0.01 / -0.10 / 0.10 / 0.11 | KMSQSDEYESRQFNSVA | NASTRMM | QQYHRLPLS | GP_Gibbs |
| ND / ND / ND / ND / ND / ND | KSSQSVLRESRNKNSVA | WASTRES | QQYHRLPPS | Ctrl |
| 0.73 / 0.28 / 0.45 / 0.33 / 0.41 / 0.98 | KLLGQNLQNMDKLNSIA | EQSVHYQ | QQYGRLPFT | En_Gibbs |
| -0.08 / -0.21 / 0.15 / -0.47 / 0.05 / -0.17 | KSSQSWLYESRNKNSVA | GASTHES | QQYHRLPLS | Rand |
| 1.34 / 1.01 / 0.86 / 0.58 / 0.92 / 1.01 | KSSQSFLYESRNKNSVA | GASTRES | QLYHRLPLS | GP_HC |
| -0.20 / -0.29 / -0.26 / -0.51 / -0.82 / -0.40 | KVAQSMLGEERNKNSVA | SASTREN | QQYHRLPLS | GP_Gibbs |
| 0.41 / 0.34 / 0.24 / -0.01 / 0.55 / 0.57 | QLSMWEQSGTRGYSSVA | DTDVRMA | QQYHRLPLS | En_Gibbs |
| 1.01 / 0.96 / 1.23 / 0.65 / 0.69 / 0.65 | TISQMQTLFSQSINNVA | EVSTRLN | QQYDRLPLA | En_Gen |
| 2.06 / ND / ND / ND / ND / ND | KSSQSQLYESRNKNSVA | GASTRES | QQYHRLALS | GP_HC |

The measurements come from Li et al. 2023 (doi:10.1038/s41467-023-39022-2) through the FLAb antibody collection.